# Data as given in patent US20160106708A1, “USE OF ANTIOXIDANTS FOR THE TREATMENT OF COGNITIVE AND BEHAVIOURAL DISORDERS IN INDIVIDUALS WITH FRAGILE X SYNDROME” (Servicio Andaluz de Salud, priority 2010, published 2016).
# Experiments:
# [1] = system: FMR1-KO mice; test: Measurement of corticosterone in serum; format: in vivo, mouse; details: FMR1-KO mice vs WT controls under the same treatment
# Text: FIG. 3. Concentration of corticosterone in mouse serum (ng/ml).
# [2] = system: FMR1-KO mice; test: Level of lipid peroxidation (TBARS) in cerebral membranes; format: in vivo, mouse; details: FMR1-KO vs WT under treatment; tianeptine: both genotypes vs saline control
# Text: FIG. 4. Concentration of TBARS in mouse cerebral membranes (nmol/mg protein).
smiles,measurement,setting,value
CN1c2ccccc2C(NCCCCCCC(=O)O)c2ccc(Cl)cc2S1(=O)=O (centres unmarked) [Tianeptine],Concentration of corticosterone in serum,[1],not capable of equalling the levels of this hormone
same,Levels of TBARS in cerebral membranes,[2],an increase in the values of TBARS
